# AlphaSeq binding of Ab-14 heavy chain variants to a spike HR2 peptide

Target: peptide PDVDLGDISGINAS, taken from heptad repeat 2 (HR2) of SARS-CoV-2 spike.

Parent: Ab-14, a human scFv built as VH, the linker GGGGSGGGGSGGGGS, VL. Only the CDRs of the heavy chain vary.
VH: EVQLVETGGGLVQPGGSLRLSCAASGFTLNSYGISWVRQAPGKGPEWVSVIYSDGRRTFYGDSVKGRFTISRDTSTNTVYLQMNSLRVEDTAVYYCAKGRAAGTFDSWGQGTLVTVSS
VL: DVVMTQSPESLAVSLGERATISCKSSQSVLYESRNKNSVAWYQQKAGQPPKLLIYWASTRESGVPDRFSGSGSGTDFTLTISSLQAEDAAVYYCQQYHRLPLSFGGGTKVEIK

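Phage display of a naive human antibody library on the peptide gave the parent. This is the validation round: designs drawn from the data on random variants, tested in the same kind of assay. Their group label is 14H_En_HC (En: ensemble of fine-tuned language models; HC: hill climbing; a sequence that several methods proposed may carry one label only). The scFvs were displayed on barcoded MATa yeast, the peptide on MATalpha yeast. The frequency of each diploid, read from paired DNA barcodes, reflects how well the two displayed proteins bind. A regression on co-assayed BCL2-family reference pairs converts the normalised counts of each replicate to an apparent Kd. There are six technical replicates.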

The parent's heavy chain CDRs are GFTLNSYGIS, VIYSDGRRTFYGDSVK, GRAAGTFDS; each variant's own CDRs replace them letter for letter.
Affinities are written as log10 Kd with Kd in nM; a lower number is a better binder.
An entry "nd" has no value in the source: the pair was not observed among the diploids in that replicate. This suggests poor binding but is not conclusive.
A sequence measured in both rounds can read differently, since the two assays cover different ranges.
The authors averaged sequences with at least three values out of six and counted those with two or fewer as poor binders.
As a blank, each scFv also met three strains without target: over all heavy chain designs, 1% of these pairings were detected, typically at 2.08 and seldom below 0.84. The control count says in how many pairings with the empty strains this scFv gave a signal, with their mean in brackets.
Of ten entries with the parent sequence, four were seen in most replicates (averages 0.34 to 2.37), three in one and three in none, so single entries are noisy.

CDR-H1	CDR-H2	CDR-H3	log10 Kd, replicates	control signals
GFQLDEYGIS	VIYADGRRTFYSDSVK	GSTAGTFDV	-0.37 -0.80 -0.65 -0.25 -0.51 -0.42	1 of 18 (1.87)
GFDLDEYGIS	VIYADGMRTFYADSVK	GEAAGTFDV	-0.25 -0.12 -0.23 -0.43 -0.12 0.30	0 of 18
GFDLNEYGIS	VIYADGRRTFYTDSVK	GAHAGTFDQ	-0.03 0.08 -0.34 -0.47 -0.23 -0.42	0 of 18
GFDLNEYGIS	VIYADGMRTSYIDSVK	GNAAGTFDV	0.13 -0.18 -0.47 0.22 -0.38 -0.08	0 of 18
GFDLNEYGIS	VIYADGRRTFYADSVK	GKAAGTFDI	nd -0.22 0.36 0.02 -0.50 nd	0 of 18
GFDLNEYGIS	VIYADGRRTFYSDSVK	GKVAGTFDV	0.34 -0.23 0.05 -0.38 0.15 0.10	0 of 18
GFNLDEYGIS	VIYADGMRTFYADSVK	GQVAGTFDS	-0.75 -0.35 -0.46 -0.80 -0.62 -0.35	0 of 18
GFDLNEYGIS	VIYADGVRTFYVDSVK	GETAGTFDT	-0.80 -0.03 -0.20 -0.73 -0.82 -0.83	1 of 18 (1.73)
GFNLDEYGIS	VIYADGRRTFYQDSVK	GEVAGTFDL	-0.46 -0.62 -0.66 -0.94 -0.70 -0.51	0 of 18
GFDLDEYGIS	VIYADGRRTFYADSVK	GENAGTFDI	-0.06 -0.10 -0.67 -0.47 -0.48 -0.25	0 of 18
GFDLNEYGIS	VIYADGVRSFYADSVK	GQLAGTFDV	0.04 -0.15 -0.06 -0.03 -0.58 -0.27	0 of 18
GFDLEEYGIS	VIYADGSRTAYADSVK	GNVAGTFDS	-0.40 -0.40 -0.38 -0.10 -0.47 0.85	0 of 18
GFDLNEYGIS	VIYADGRRTFYKDSVK	GETAGTFDS	0.10 -0.17 -0.37 -0.42 -0.19 -0.09	0 of 18
GFDLNEYGIS	VIYADGRRTFYIDSVK	GQTAGTFDS	0.14 -0.46 -0.38 -0.42 -0.45 -0.05	0 of 18
GFNLNEYGIS	VIYADGQRTFYADSVK	GQVAGTFDV	-0.63 -0.82 -0.60 -0.89 -0.77 -0.94	1 of 18 (1.39)
GFDLNEYGIS	VIYADGKRTFYSDSVK	GNMAGTFDV	0.16 0.49 0.05 0.26 -0.55 0.47	0 of 18
GFDLNEYGIS	VIYADGKRTFYADDVK	GEVAGTFDL	0.30 0.17 0.14 0.23 0.20 0.21	0 of 18
GFDLNEYGIS	VIYADGRRTYYVDSVK	GVNAGTFDS	-0.47 -0.58 -0.63 -0.74 -0.40 -0.56	0 of 18
GFDLDEYGIS	VIYADGRRTFYADSVK	GEVAGTFDS	-0.12 -0.36 -0.97 -0.68 -0.70 -0.80	0 of 18
GFDLNEYGIS	VIYADGRRTFYIDSVK	GEIAGTFDQ	-0.48 -0.60 -0.98 -0.93 -1.04 -0.55	0 of 18
GFDLNEYGIS	VIYADGKRTFYTDSVK	GEFAGTFDQ	nd nd nd nd nd nd	0 of 18
GFDLNEYGIS	VIYADGRRTFYSDSVK	GEAAGTFDK	-0.83 -0.52 -1.18 -1.16 -0.97 -1.13	0 of 18
GFDLNEYGIS	VIYADGRRTFYADSVK	GENAGTFLS	0.26 0.19 -0.10 0.06 0.26 0.38	2 of 18 (2.85)
GFDLNEYGIS	VIYADGRRTFYADSVK	GQTAGTFTL	-0.74 -0.73 -0.85 -0.85 -0.95 -0.50	0 of 18
GFSLDEYGIS	VIYADGRRTFYQDSVK	GEVAGTFDS	-0.04 -0.50 -0.54 -0.96 -0.43 -0.61	0 of 18
GFDLNEYGIS	VIYADGMRTFYSDSVK	GTNAGTFDI	-0.15 0.09 -0.40 -0.45 -0.70 -0.29	0 of 18
GFDLDEYGIS	VIYADGRRTFYADSVK	GNNAGTFDQ	0.63 0.34 0.27 0.74 0.59 0.57	0 of 18
GFDLNEYGIS	VIYADGRRTFYTDSVK	GQIAGTFDQ	-0.43 -0.71 -0.88 -0.82 -0.74 -0.39	1 of 18 (1.13)
GFDLNEYGIS	VIYADGRRTFYADSVK	GKNAGTFDV	-0.76 -0.33 -0.71 -0.76 -0.75 -0.93	0 of 18
GFDLDEYGIS	VIYADGRRTFYADSVK	GNVAGTFDI	-0.42 -0.36 -0.38 -0.64 -0.36 -0.22	1 of 18 (0.86)
GFDLNEYGIS	VIYADGHRTFYSDSVK	GQVAGTFDA	-0.16 -0.44 -0.37 -0.46 -0.64 -0.19	1 of 18 (2.22)
GFDLEDYGIS	VIYADGRRTFYADSVK	GEVAGTFDV	0.20 0.26 0.13 -0.28 0.07 0.29	0 of 18
GFNLNEYGIS	VIYADGRRTFYADSVK	GGQAGTFDM	-0.15 nd -0.37 -0.03 0.66 1.22	0 of 18
GFDLNEYGIS	VIYADGRRTFYSDKVK	GNIGGTFDI	-0.89 -0.70 -1.12 -1.00 -0.96 -0.46	0 of 18
GFDLNEYGIS	VIYADGMRTAYADSVK	GQVAGTFDS	-0.55 -0.57 -0.74 -0.70 -0.49 -0.14	0 of 18

Picked from the list: the 4 lowest averages where every replicate gave a value.

CDR-H1	CDR-H2	CDR-H3	log10 Kd, replicates	control signals
GFDLNEYGIS	VIYADGRRTFYSDSVK	GEAAGTFDK	-0.83 -0.52 -1.18 -1.16 -0.97 -1.13	0 of 18
GFDLNEYGIS	VIYADGRRTFYSDKVK	GNIGGTFDI	-0.89 -0.70 -1.12 -1.00 -0.96 -0.46	0 of 18
GFNLNEYGIS	VIYADGQRTFYADSVK	GQVAGTFDV	-0.63 -0.82 -0.60 -0.89 -0.77 -0.94	1 of 18 (1.39)
GFDLNEYGIS	VIYADGRRTFYADSVK	GQTAGTFTL	-0.74 -0.73 -0.85 -0.85 -0.95 -0.50	0 of 18

Data: MIT Lincoln Laboratory AlphaSeq set, Li et al. 2023, doi:10.1038/s41467-023-39022-2, as distributed in FLAb.